This is an account of results in BindingDB's records for doi:10.1021/jm9804127 (Glaxo Wellcome Research and Development, 1999).

This assay concerns the target T1, Peroxisome proliferator-activated receptor alpha (Homo sapiens, UniProt Q07869).
T1 sequence (Q07869 whole entry): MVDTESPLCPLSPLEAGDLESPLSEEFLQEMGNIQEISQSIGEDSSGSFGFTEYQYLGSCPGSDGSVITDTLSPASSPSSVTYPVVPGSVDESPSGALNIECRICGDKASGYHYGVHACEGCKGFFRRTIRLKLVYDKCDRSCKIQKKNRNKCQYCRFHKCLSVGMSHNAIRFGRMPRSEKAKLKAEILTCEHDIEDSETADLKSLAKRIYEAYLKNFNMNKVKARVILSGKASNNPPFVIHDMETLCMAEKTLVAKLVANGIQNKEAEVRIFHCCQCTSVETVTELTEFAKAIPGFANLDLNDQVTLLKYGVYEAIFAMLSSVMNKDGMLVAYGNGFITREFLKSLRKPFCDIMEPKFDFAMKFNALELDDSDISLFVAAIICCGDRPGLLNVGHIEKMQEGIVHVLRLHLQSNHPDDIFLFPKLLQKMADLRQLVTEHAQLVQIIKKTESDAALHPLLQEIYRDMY
Description: The compound was tested in vitro for inhibiting the 50% binding of Peroxisome proliferator activated receptor alpha.

Usually Ki stands for a dissociation constant, usually derived from enzyme kinetics or from competition with a known ligand. Lower therefore signals a stronger hold on the target. Molecule `Cc1oc(-c2ccccc2)nc1CCOc1ccc(C[C@H](Nc2ccccc2C(=O)c2ccccc2)C(=O)O)cc1` [2-(2-Benzoyl-phenylamino)-3-{4-[2-(5-methyl-2-phenyl-oxazol-4-yl)-ethoxy]-phenyl}-propionic acid(GI 262570)] had a Ki of 6.31 µM.
